Laboratory results as given in BindingDB's records for patent US9018371 (Fm Therapeutics, 2015).

By UniProt entry, the sequences of proteins in these tests, tags left out.
UniProt P0DMS8, whole entry: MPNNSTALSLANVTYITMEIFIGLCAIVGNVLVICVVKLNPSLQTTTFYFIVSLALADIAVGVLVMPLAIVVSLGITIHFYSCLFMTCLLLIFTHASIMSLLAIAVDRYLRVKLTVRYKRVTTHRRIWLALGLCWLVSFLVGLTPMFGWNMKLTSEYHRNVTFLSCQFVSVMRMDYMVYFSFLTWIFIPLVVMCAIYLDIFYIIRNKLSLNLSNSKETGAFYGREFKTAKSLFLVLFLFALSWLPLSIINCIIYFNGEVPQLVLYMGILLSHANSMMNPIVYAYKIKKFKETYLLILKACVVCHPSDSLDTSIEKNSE

Biological target: Adenosine receptor A3 (Homo sapiens, UniProt P0DMS8)
Test: Binding Assay

Ki: 1.66 nM
SMILES: OC1CS[C@@H](n2cnc3c(NCc4cccc(Cl)c4)nc(Cl)nc32)C1O (stereo in doubt) [US9018371, 2]
